This passage reports Ki results from patent US9611251B2, “Substituted piperidine compounds and their use as orexin receptor modulators” (Janssen Pharmaceutica NV, priority 2013, dated 2017).

Sequences of proteins named here, by UniProt entry; tags and fusion partners are left off.
UniProt O43614, whole entry: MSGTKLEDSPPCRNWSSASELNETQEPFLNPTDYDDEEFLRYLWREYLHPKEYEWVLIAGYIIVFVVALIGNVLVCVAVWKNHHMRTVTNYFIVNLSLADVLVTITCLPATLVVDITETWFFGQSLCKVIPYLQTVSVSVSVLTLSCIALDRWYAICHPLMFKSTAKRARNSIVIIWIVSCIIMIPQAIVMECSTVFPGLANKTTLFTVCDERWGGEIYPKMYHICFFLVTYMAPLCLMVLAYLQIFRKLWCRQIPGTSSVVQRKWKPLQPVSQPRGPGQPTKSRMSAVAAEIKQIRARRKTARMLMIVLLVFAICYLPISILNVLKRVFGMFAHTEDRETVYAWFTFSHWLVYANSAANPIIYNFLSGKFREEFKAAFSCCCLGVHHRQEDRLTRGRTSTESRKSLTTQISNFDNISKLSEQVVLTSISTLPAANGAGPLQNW

One assay has as its target human orexin 1 receptor (Homo sapiens, UniProt O43613). As to the kind of experiment: Human orexin 1 receptor radioligand binding. To be noted: averages of 2-20 runs, read-out: hOX1 Ki. As to the method: The in vitro affinity of the compounds of the invention for the rat/human orexin 1 and human orexin 2 receptors was determined by competitive radioligand binding using [^3H](1-(5-(2-fluoro-phenyl)-2-methyl-thiazol-4-yl)-1-((S)-2-(5-phenyl-(1,3,4)oxadiazol-2-ylmethyl)-pyrrolidin-1-yl)-methanone) (Langmead et al., 2004) and [^3H]EMPA (n-ethyl-2[96-methoxypyridin-3-yl)-(toluene-2-sulfonyl)-amino]-N-pyridin-3-ylmethyl acetamide), respectively (Langmead et al., 2004, British Journal of Pharmacology 141:340-346; Malherbe et al., 2004, British Journal of Pharmacology 156:1326-41).
Data are analyzed using pc-Sandy macro and graphed on Graphpad Prism 5. For analysis, each concentration point is averaged from triplicate values and the averaged values are plotted on Graphpad Prism. The IC50 was determined by applying the following equation (GraphPad Prism 5.0, SanDiego) for one site competition where X=log (concentration) and Y=specific binding. […] Graphpad Prism calculates Ki value from IC50 and the pre-determined Kd values for [^3H]-(1-(5-(2-fluoro-phenyl)-2-methyl-thiazol-4-yl)-1-((S)-2-(5-phenyl-(1,3,4)oxadiazol-2-ylmethyl)-pyrrolidin-1-yl)-methanone) and [3H]-EMPA. […]
Human Embryonic Kidney 293 cells (HEK293) stably expressing rat orexin 1 receptor (Genebank accession number NM_001525) or Chinese ovary cells (CHO) stably expressing human orexin 1 receptor (Genebank accession number NM_001526) were grown to confluency in DMEM (Hyclone, cat #SH30022), 10% FBS, 1×Pen/Strep, 1× sodium pyruvate, 10 mM HEPES, 600 μg/mL G418 and DMEM/F12 (Gibco, Cat #11039), 10% FBS, 1×Pen/Strep, 600 μg/mL G418 media, respectively on 150 cm^2 tissue culture plates, washed with 5 mM EDTA in PBS (HyClone Dulbecco's Phosphate Buffered Saline 1× with Calcium and Magnesium, Cat #SH30264.01, hereafter referred to simply as PBS) and scraped into 50 ml tubes. […] Total and nonspecific binding was determined in the absence and presence of 10 μM almorexant. […]

The next assay addresses rat orexin 1 receptor (Rattus norvegicus, UniProt P56718). As to the kind of experiment: Rat orexin 1 receptor radioligand binding. To be noted: averages of 2-20 runs, read-out: rOX1 Ki. Here is the method: (§1) Data are analyzed using pc-Sandy macro and graphed on Graphpad Prism 5. For analysis, each concentration point is averaged from triplicate values and the averaged values are plotted on Graphpad Prism. The IC50 was determined by applying the following equation (GraphPad Prism 5.0, SanDiego) for one site competition where X=log (concentration) and Y=specific binding. Top denotes the total [^3H]-(1-(5-(2-fluoro-phenyl)-2-methyl-thiazol-4-yl)-1-((S)-2-(5-phenyl-(1,3,4)oxadiazol-2-ylmethyl)-pyrrolidin-1-yl)-methanone) binding, bottom denotes the nonspecific [^3H]-(1-(5-(2-fluoro-phenyl)-2-methyl-thiazol-4-yl)-1-((S)-2-(5-phenyl-(1,3,4)oxadiazol-2-ylmethyl)-pyrrolidin-1-yl)-methanone) binding. Graphpad Prism calculates Ki value from IC50 and the pre-determined Kd values for [^3H]-(1-(5-(2-fluoro-phenyl)-2-methyl-thiazol-4-yl)-1-((S)-2-(5-phenyl-(1,3,4)oxadiazol-2-ylmethyl)-pyrrolidin-1-yl)-methanone) and [3H]-EMPA. The Ki for each compound is then uploaded into 3DX. Each run comprises individual compounds in triplicate.
Rat and Human Orexin 1 Receptor Radioligand Binding Studies
After centrifugation (2K×G, 5 min at 4° C.), the supernatant was aspirated and the pellets frozen and stored at −80° C. […] Each cell pellet from a 15 cm plate was resuspended in 10 mL, stored on ice, and homogenized for 45 sec prior to addition to the reactions. Competition binding experiments in 96 well polypropylene plates were performed using [^3H]-(1-(5-(2-fluoro-phenyl)-2-methyl-thiazol-4-yl)-1-((S)-2-(5-phenyl-(1,3,4)oxadiazol-2-ylmethyl)-pyrrolidin-1-yl)-methanone) (Moraveck Corporation, specific activity=35.3 Ci/mmol), diluted to a 10 nM concentration in PBS (4 nM final). […] The final concentration of DMSO in the reactions is equal to or less than 0.1%. Total and nonspecific binding was determined in the absence and presence of 10 μM almorexant. […] Plates were dried in 55° C. oven for 60 min, scintillation fluid was added, and the radioactivity was counted on a Topcount (Packard).

The next assay deals with human orexin 2 receptor (Homo sapiens (Human), UniProt O43614). The assay is described as follows: Human orexin 2 receptor radioligand binding ([3H]-EMPA). To be noted: averages of 2-20 runs, read-out: hOX2 Ki. As to the method:
as §1
Human Orexin 2 Receptor Radioligand Binding Studies
HEK293 stably expressing human orexin 2 receptor (Genebank accession number NM_001526) were grown to confluency in DMEM (Hyclone, cat #SH30022), 10% FBS, 1×Pen/Strep, 1× NaPyruvate, 10 mM HEPES, 600 ug/ml G418 media on 150 cm^2 tissue culture plates, washed with 5 mM EDTA in PBS (HyClone Dulbecco's Phosphate Buffered Saline 1× with Calcium and Magnesium, Cat #SH30264.01, hereafter referred to simply as PBS) and scraped into 50 ml tubes. After centrifugation (2K×G, 5 min at 4° C.), the supernatant was aspirated and the pellets frozen and stored at −80° C. […] Each cell pellet from a 15 cm plate was resuspended in 10 mL, stored on ice, and homogenized for 45 sec just prior to addition to the reactions. […] Total and nonspecific binding was determined in the absence and presence of 10 μM almorexant. […] Plates were dried in 55° C. oven for 60 min, scintillation fluid was added, and the radioactivity was counted on a Topcount (Packard).

In general, Ki refers to the equilibrium dissociation constant of an inhibitor or competing ligand from its target. `Cc1ccc(-n2nccn2)c(C(=O)N2CCC[C@@H](Oc3ccc(C(F)(F)F)cn3)[C@@H]2C)n1` [Example 108, ((2S,3R)-2-methyl-3-((5-(trifluoromethyl)pyridin-2-yl)oxy)piperidin-1-yl)(6-methyl-3-(2H-1,2,3-triazol-2-yl)pyridin-2-yl)methanone]: the figures for the Ki at human orexin 1 receptor and at rat orexin 1 receptor were 7 nM and 9 nM, respectively.
With `Cc1cnc(C(=O)N2CCC[C@@H](N(C)c3nc4ccccc4o3)[C@@H]2C)c(-n2nccn2)c1` (relative stereo) [Example 187, ((2S*,3R*)-3-(benzo[d]oxazol-2-yl(methyl)amino)-2-methylpiperidin-1-yl)(5-methyl-3-(2H-1,2,3-triazol-2-yl)pyridin-2-yl)methanone], the Ki on human orexin 2 receptor turned out to be 2500 nM.
In the case of `C[C@H]1[C@H](Nc2ccc(Cl)cn2)CCCN1C(=O)c1ccccc1-n1nccn1` [Example 100, (2-(2H-1,2,3-triazol-2-yl)phenyl)((2S,3R)-3-((5-chloropyridin-2-yl)amino)-2-methylpiperidin-1-yl)methanone], the inhibition constant Ki at human orexin 1 receptor turned out to be 9 nM; on rat orexin 1 receptor, 6 nM.
Take `C[C@H]1[C@H](Nc2ccc(C(F)(F)F)cn2)CCCN1C(=O)c1ccccc1-n1nccn1` (racemic) [Example 12, (±)-trans-(2-(2H-1,2,3-triazol-2-yl)phenyl)(2-methyl-3-((5-(trifluoromethyl)pyridin-2-yl)amino)piperidin-1-yl)methanone]: the Ki turned out to be 437 nM on human orexin 2 receptor, 16 nM at human orexin 1 receptor and 16 nM on rat orexin 1 receptor.
Consider `C[C@H]1[C@H](Nc2ccc(C(F)(F)F)cn2)CCCN1C(=O)c1ccc(F)cc1-c1ncco1` (relative stereo) [Example 203, (4-fluoro-2-(oxazol-2-yl)phenyl)((2S*,3R*)-2-methyl-3-((5-(trifluoromethyl)pyridin-2-yl)amino)piperidin-1-yl)methanone], for which, on human orexin 2 receptor, the inhibition constant (Ki) was found to be 755 nM.
